# Like-named read-outs stand apart in the source and are kept apart here.
# What was measured:
# KOR [1] = target: T1, KOR (Cavia porcellus, UniProt P41144); experiment: KOR competitive receptor binding assay with [3H]U-69,593; set-up: species or system guinea pig; details: for KOR:DOR selectivity: from Ki values; for Ki: read-out: Ki±SEM KOR [3H]U-69,593, guinea pig brain membrane preparations
# DOR [2] = target: T2, DOR (Rattus norvegicus, UniProt P33533); experiment: DOR receptor binding assay with [3H]DPDPE; details: read-out: Ki±SEM DOR [3H]DPDPE; rat brain membrane preparations
# KOR [3] = target: T3, KOR (Homo sapiens, UniProt P41145); experiment: cAMP inhibition assay (GloSensor, HEK 293T cells); format: cell-based; details: human HEK 293T cells; for EC50: read-out: cAMP EC50
# KOR [4] = target: T3, KOR; experiment: Tango β-arrestin-2 recruitment assay (HTLA cells); format: cell-based; details: for EC50: read-out: β-Arrestin-2 EC50; for β-Arrestin-2 E max: refers to U-50,488 (100 % intrinsic activity)
# mouse DCs (wild-type) = experiment: Maturation and activation of PMA/ionomycin-stimulated mouse DCs (flow cytometry); format: cell-based; details: activated mouse DCs, 1 or 5 μg/mL, vs. PMA/Iono
# human DCs = experiment: Maturation and activation of PMA/ionomycin-stimulated human DCs; format: cell-based; details: 5 μM/mL each, 48 h after PMA/Iono 12 h, n=4 donors
# [5] = system: mouse T cells (wild-type); details: for expression of surface activation markers CD25, CD44 and CD69 and IFN-γ production: 5 μg/mL
# [6] = system: T cells from KOR-deficient mice; experiment: Activation of PMA/ionomycin-stimulated T cells from KOR-deficient mice; format: cell-based, mouse; details: 5 μg/mL
# [7] = system: DCs from KOR-deficient mice; details: 5 μg/mL
# KOR [8] = target: T1, KOR; details: read-out: Ki±SEM KOR [3H]U-69,593; guinea pig brain membrane preparations; cited from earlier work
# DOR [9] = target: T2, DOR; details: read-out: Ki DOR [3H]DPDPE; rat brain membrane preparations; cited from earlier work
# MOG induced EAE = details: mice; cited from earlier work
SMILES,KOR:DOR selectivity (KOR [1]),Ki (KOR [1]),Ki (KOR [1]; listed as 12 b),Ki (DOR [2]),"cAMP E max (KOR [3]; refers to U-50,488 (100 % intrinsic activity), listed as 12 b)",EC50 (KOR [3]),EC50 (KOR [4]),β-Arrestin-2 E max (KOR [4]),expression of maturation marker CD11c and IFN-γ production (mouse DCs (wild-type)),expression of CD11c and production of IFN-γ in human DCs (human DCs),"expression of surface activation markers CD25, CD44 and CD69 and IFN-γ production [5]",expression of activation markers or cytokine release in T cells from KOR-deficient mice [6],"anti-inflammatory effect (CD11c, IFN-γ) in DCs from KOR-deficient mice [7]",anti-inflammatory cytokine IL-10 in cell cultures ([5]; culture supernatants),Ki (KOR [8]),Ki (DOR [9]),protection from MS-like symptoms / disease severity in EAE (MOG induced EAE)
O=C(Cc1ccc(Cl)c(Cl)c1)N1CCN[C@@H]2CCC[C@@H](N3CC[C@H](O)C3)[C@@H]21,more than 100 fold,< 10 nM,2 nM,246 nM,102%,0.2 nM,16 nM,97%,did non modulate,only a minor but not significant,did not modulate the activation status,,,,,,
O=C(Cc1ccc(Cl)c(Cl)c1)N1CCN[C@@H]2CCC[C@@H](N3CC[C@@H](F)C3)[C@@H]21,more than 100 fold,1.5 nM,,251 nM,,0.033 nM,6.9 nM,91%,significantly reduced,reduced,significantly reducing,did not result in an altered expression,completely abrogated,significant upregulation,,,
O=C(Cc1ccc(Cl)c(Cl)c1)N1CCNC2CCCC(N3CCCC3)C21 (centres unmarked),,,,,,,,,,,,,,,0.54 nM,205 nM,almost complete protection
